# From article PMC4234457, “Primary porcine proximal tubular cells as an alternative to human primary renal cells in vitro: an initial characterization” (BMC Cell Biology, 2013)
# System: Oat1 or Oat3
# Assay: Transporter induction experiments (RT-PCR of transporter mRNA in PKC)
# Assay type: cell-based, porcine
# Conditions: 50 nM or 1 μM to basolateral compartment, 48 hours
structure (smiles),measurement,value
C[C@]12CC[C@H]3[C@@H](CCC4=CC(=O)CC[C@@]43C)[C@@H]1CC[C@@H]2O [testosterone],Stimulatory effect on transporter mRNA expression,none of the tested substances showed any stimulatory effect
